Values of other authors in patent publication US6821979B2, “Synergistic enhancement of cognitive ability” (Blanchette Rockefeller Neurosciences Institute, priority 2002, dated 2004).

The chains behind the UniProt entries cited, without tags or fusion partners.
UniProt P25099, whole entry: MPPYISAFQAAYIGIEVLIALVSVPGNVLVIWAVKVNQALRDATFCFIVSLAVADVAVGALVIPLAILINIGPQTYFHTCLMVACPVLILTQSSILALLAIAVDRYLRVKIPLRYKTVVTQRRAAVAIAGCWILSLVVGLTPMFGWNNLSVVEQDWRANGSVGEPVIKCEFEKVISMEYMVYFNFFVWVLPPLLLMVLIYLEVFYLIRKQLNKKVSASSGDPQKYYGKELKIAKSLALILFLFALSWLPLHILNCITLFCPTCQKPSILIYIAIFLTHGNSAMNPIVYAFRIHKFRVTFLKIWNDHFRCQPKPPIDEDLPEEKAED

Molecular target: T1, adenosine A1 receptor (Rattus norvegicus, UniProt P25099)
T1 construct: host or cells: animal in vivo and hippocampal CA1; endogenous receptor

CCCn1c(=O)c2[nH]c(C3CCCC3)nc2n(CCC)c1=O [DPCPX]
spatial learning and functional impairment of hippocampal CA1 synaptic plasticity after hypoxia: preventable
